What was measured:
endothelin ETA receptor = endothelin ETA receptor (Homo sapiens, UniProt P25101); conditions: cited from earlier work
[1] = system: ET-1 induced vasocontriction and hypertension; conditions: cited from earlier work
[2] = system: model rats of heart failure after myocardial infarction caused by coronary ligation; conditions: rat, in vivo
[3] = system: model rats of heart failure after myocardial infarction caused by coronary ligation; conditions: in 24 weeks after start of administration; oral once a day, 1 mg/kg·day; control group 47.6%; p=0.013
[4] = system: rats of heart failure after cardiac infarction prepared by coronary ligation; conditions: in 30 weeks after start of administration; oral once a day, 1 mg/kg·day; control group 81.8%; p=0.0465
[5] = system: rats of heart failure after cardiac infarction prepared by coronary ligation; conditions: rat, in vivo, po, 1 mg/kg
[6] = system: rats of heart failure after cardiac infarction prepared by coronary ligation; conditions: about 30 weeks oral once a day, 1 mg/kg·day; p < 0.01 vs control group
[7] = system: rats of heart failure after cardiac infarction prepared by coronary ligation; conditions: rat, in vivo, po, 1 mg/kg; remark: listed apart in the source

Chains of the proteins cited; added tags and fusions are not shown. Residues count along the entry.
UniProt P25101, 21-427: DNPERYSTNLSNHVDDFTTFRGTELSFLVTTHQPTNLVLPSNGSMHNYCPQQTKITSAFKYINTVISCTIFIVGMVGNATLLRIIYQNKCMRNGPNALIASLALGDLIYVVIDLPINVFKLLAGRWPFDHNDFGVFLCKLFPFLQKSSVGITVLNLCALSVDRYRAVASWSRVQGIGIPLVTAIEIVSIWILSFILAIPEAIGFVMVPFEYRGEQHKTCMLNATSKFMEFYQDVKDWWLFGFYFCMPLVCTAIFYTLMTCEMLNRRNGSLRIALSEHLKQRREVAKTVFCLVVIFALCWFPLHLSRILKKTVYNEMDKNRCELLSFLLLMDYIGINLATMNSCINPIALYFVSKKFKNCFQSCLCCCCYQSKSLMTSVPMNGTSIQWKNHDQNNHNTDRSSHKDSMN

| Compound | inhibiting ET-1 binding to endothelin ETA receptor (endothelin ETA receptor) | preventing ET-1 induced vasocontriction and hypertension [1] | Running Time [2] [min] | mortality [3] [%] | mortality [4] [%] | load to the right ventricle (RVSP, CVP) [5] | Ratio of Left Ventricle Weight to Body Weight (LV + SEP)/BW [6] | Ratio of Right Ventricle Weight to Body Weight RV/BW [6] | Ratio of Wet Lung to Body Weight Lungs/BW [6] | expansion of the left ventricular cavity [7] | hypertrophy and myocardial fibrosis in non-infarcted region [7] |
| --- | --- | --- | --- | --- | --- | --- | --- | --- | --- | --- | --- |
| COc1ccccc1Oc1c(NS(=O)(=O)C=Cc2ccccc2)nc(-c2ncccn2)nc1OC [N-[6-methoxy-5-(2-methoxyphenoxy)-2-(2-pyrimidinyl)-4-pyrimidinyl]-2-phenylethenesulfonamide] | effective | effective | – | – | – | – | – | – | – | – | – |
| COc1ccccc1Oc1c(NS(=O)(=O)C=Cc2ccccc2)nc(-c2ncccn2)nc1OC.[K] [Compound 1, N-[6-methoxy-5-(2-methoxyphenoxy)-2-(2-pyrimidinyl)-4-pyrimidinyl]-2-phenylethenesulfonamide potassium salt] | – | – | 37.81 ± 3.6 | 0.7 | 55.0 | relieved | 1.85 ± 0.08 | 0.57 ± 0.05 | 3.12 ± 0.09 | inhibited the expansion of the left ventricular cavity | remarkably prevented the heart failure rats from having hypertrophy and myocardial fibrosis |
